Reference: patent US20230357179A1, “RAF KINASE INHIBITORS AND METHODS OF USE THEREOF” (Deciphera Pharmaceuticals, LLC, priority 2021, published 2023)

Protein sequences, listed by entry. Tags and fused reporters are not part of them. Lines headed by an entry give the natural chain unless they say otherwise; changes in a name come on top. Chains listed by the source or under a name are the forms on record and can include a tag or linker. Residues count along the entry.
UniProt P15056, 416-766: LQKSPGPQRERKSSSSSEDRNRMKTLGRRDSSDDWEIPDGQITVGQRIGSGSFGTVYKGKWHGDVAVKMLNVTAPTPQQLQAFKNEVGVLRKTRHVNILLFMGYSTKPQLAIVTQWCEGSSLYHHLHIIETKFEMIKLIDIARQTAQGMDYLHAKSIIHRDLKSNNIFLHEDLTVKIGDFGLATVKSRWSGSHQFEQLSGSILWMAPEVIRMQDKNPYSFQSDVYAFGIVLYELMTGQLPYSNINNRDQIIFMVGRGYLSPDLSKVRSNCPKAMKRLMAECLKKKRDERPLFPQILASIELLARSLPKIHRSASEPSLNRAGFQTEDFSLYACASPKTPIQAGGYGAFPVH
UniProt P15056, 416-766 V600E: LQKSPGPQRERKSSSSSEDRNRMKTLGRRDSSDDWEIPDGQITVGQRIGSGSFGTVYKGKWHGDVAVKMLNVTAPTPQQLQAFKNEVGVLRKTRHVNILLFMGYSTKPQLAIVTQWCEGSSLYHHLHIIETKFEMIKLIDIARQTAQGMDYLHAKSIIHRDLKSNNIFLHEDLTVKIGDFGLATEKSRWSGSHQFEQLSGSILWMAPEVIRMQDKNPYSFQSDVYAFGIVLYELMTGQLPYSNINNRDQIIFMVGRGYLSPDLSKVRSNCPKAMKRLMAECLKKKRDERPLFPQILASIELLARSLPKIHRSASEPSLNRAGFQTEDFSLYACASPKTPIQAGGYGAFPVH
UniProt P10398, 273-606 with tags or gaps Y301D/Y302D: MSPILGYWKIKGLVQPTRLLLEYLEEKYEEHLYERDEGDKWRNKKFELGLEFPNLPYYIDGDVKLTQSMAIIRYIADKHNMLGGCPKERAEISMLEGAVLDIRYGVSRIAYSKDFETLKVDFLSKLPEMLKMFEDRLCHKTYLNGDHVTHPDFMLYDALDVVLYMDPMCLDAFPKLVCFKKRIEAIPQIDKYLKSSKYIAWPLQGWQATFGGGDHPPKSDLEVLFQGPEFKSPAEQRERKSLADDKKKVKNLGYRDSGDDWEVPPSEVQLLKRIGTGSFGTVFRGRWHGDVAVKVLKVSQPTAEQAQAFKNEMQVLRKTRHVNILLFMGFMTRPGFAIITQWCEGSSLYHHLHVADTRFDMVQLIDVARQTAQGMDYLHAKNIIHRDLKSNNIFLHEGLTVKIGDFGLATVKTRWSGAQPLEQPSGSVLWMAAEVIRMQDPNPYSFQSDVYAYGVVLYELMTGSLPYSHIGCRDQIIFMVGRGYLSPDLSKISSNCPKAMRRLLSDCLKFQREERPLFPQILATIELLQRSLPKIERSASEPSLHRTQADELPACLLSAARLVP
UniProt P04049, 307-648 Y340D/Y341D: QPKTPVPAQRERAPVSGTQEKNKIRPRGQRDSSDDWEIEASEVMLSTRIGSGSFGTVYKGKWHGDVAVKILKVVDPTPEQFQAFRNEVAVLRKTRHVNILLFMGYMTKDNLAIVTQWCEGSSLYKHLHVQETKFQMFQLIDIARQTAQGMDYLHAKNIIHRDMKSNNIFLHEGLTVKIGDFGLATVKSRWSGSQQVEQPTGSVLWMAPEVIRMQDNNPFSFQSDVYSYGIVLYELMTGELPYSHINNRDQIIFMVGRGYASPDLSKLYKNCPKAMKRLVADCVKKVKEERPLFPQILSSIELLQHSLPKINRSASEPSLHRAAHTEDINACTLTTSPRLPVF

Tests used:
B-Raf kinase = B-Raf kinase (Homo sapiens, UniProt P15056); test: Biochemical assay for B-Raf.1 (coupled pyruvate kinase/lactate dehydrogenase); details: read-out: BRAF.1 IC50
Procedure: Biochemical Assay for B-Raf.1
(§1) Activity of B-Raf kinase (SEQ. ID NO: 2) was determined spectroscopically using a coupled pyruvate kinase/lactate dehydrogenase assay that continuously monitors the ATP hydrolysis-dependent oxidation of NADH (e.g., Schindler et al., Science, 2000, 289, 1938-1942). Assays were conducted in 384-well plates (100 μL final volume) using 0.13 nM B-Raf (Sigma), 1.5 units pyruvate kinase, 2.1 units lactate dehydrogenase, 1 mM phosphoenol pyruvate, 0.28 mM NADH, 30.1 nM MEK (SignalChem), and 1 mM ATP in assay buffer (100 mM Tris, pH 7.5, 15 mM MgCl2, 0.5 mM DTT, 0.1% octyl-glucoside, 0.002% (w/v) BSA, and 0.002% Triton X-100). Inhibition of B-Raf was measured by adding serial diluted test compound (final assay concentration of 1% DMSO). A decrease in absorption at 340 nm was monitored continuously for 6 h at 30° C. on a multi-mode microplate reader (BioTek). The reaction rate was calculated using the 4 to 5 h time frame. The reaction rate at each concentration of compound was converted to percent inhibition using controls (i.e., reaction with no test compound and reaction with a known inhibitor) and IC50 values were calculated by fitting a four-parameter sigmoidal curve to the data using Prism (GraphPad software).

A-Raf kinase = A-Raf kinase (Homo sapiens, UniProt P10398, Y301D/Y302D); test: Biochemical assay for A-Raf.1 (coupled pyruvate kinase/lactate dehydrogenase); details: read-out: ARAF.1 IC50
Procedure: Biochemical assay for A-Raf.1
as §1, with “A-Raf” for “B-Raf”, “NO. 1)” for “NO: 2)”, “5.55” for “0.13”

C-Raf kinase = C-Raf kinase (Homo sapiens, UniProt P04049, Y340D/Y341D); test: Biochemical assay for C-Raf.1 (coupled pyruvate kinase/lactate dehydrogenase); details: read-out: CRAF.1 IC50
Procedure: Biochemical Assay for C-Raf.1
as §1, with “of C-Raf” for “of B-Raf”, “NO: 3)” for “NO: 2)”, “using 0.43” for “using 0.13”, “nM C-Raf” for “nM B-Raf”

B-Raf (V600E) kinase = B-Raf (V600E) kinase (Homo sapiens, UniProt P15056, V600E); test: Biochemical assay for B-Raf (V600E).1 (coupled pyruvate kinase/lactate dehydrogenase); details: read-out: BRAF V600E.1 IC50
Procedure: Biochemical Assay for B-Raf (V600E).1
Activity of B-Raf (V600E) (SEQ. ID NO: 4) kinase was determined spectroscopically using a coupled pyruvate kinase/lactate dehydrogenase assay that continuously monitors the ATP hydrolysis-dependent oxidation of NADH (e.g., Schindler et al., Science, 2000, 289, 1938-1942). Assays were conducted in 384-well plates (100 μL final volume) using 0.03 nM B-Raf (SignalChem), 1.5 units pyruvate kinase, 2.1 units lactate dehydrogenase, 1 mM phosphoenol pyruvate, 0.28 mM NADH, 30.1 nM MEK (SignalChem), and 1 mM ATP in assay buffer (100 mM Tris, pH 7.5, 15 mM MgCl2, 0.5 mM DTT, 0.1% octyl-glucoside, 0.002% (w/v) BSA, and 0.002% Triton X-100). Inhibition of B-Raf (V600E) was measured by adding serial diluted test compound (final assay concentration of 1% DMSO). A decrease in absorption at 340 nm was monitored continuously for 6 h at 30° C. on a multi-mode microplate reader (BioTek). The reaction rate was calculated using the 3 to 4 h time frame. The reaction rate at each concentration of compound was converted to percent inhibition using controls (i.e., reaction with no test compound and reaction with a known inhibitor) and IC50 values were calculated by fitting a four-parameter sigmoidal curve to the data using Prism (GraphPad software).

SMILES: Cc1ccc(NC(=O)NC2CC(C)(C)C2)cc1-c1cc(-c2ccnc(NS(C)(=O)=O)c2)nc(C2CC2)c1
- IC50 (B-Raf kinase): 500 to 1000 nM
- IC50 (A-Raf kinase): > 1000 nM
- IC50 (C-Raf kinase): < 100 nM
- IC50 (B-Raf (V600E) kinase): < 100 nM
